As a reminder, the inhibition is the drop in the measured response relative to a control, in per cent.

The chains behind the UniProt entries cited, without tags or fusion partners.
UniProt O43353, whole entry: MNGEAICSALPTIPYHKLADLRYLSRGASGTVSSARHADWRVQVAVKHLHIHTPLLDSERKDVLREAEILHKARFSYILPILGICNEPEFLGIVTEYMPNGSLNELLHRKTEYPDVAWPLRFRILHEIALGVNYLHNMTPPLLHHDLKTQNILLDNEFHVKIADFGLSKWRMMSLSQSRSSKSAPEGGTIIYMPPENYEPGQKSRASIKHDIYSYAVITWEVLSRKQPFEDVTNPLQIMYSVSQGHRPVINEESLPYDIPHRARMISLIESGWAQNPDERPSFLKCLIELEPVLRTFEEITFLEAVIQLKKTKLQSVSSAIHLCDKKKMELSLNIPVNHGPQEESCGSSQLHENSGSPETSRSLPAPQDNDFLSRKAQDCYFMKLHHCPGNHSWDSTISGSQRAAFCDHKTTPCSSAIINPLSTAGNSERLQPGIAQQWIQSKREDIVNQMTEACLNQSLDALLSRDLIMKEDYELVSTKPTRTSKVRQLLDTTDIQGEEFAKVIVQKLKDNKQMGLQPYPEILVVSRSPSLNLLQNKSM

Inhibition data for 49 compounds are collected here from PubChem BioAssay AID624267 (The Scripps Research Institute Molecular Screening Center, 2012).

This is a selection; strong and weak results do not stand in their true shares. Active and inactive are the calls of the source. Rule as the data show it: active = inhibition above about 21%; inactive = the rest.

The target in the assay is Receptor-interacting serine/threonine-protein kinase 2 (Homo sapiens) (UniProt O43353). The assay can be described thus: NOD2-RIPK2 binding disruptors in cells, primary screen, fluorescence, CHO cells, BLA complementation (AID 624267).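 Also: 0% = vehicle only and 100% = reference blocker.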 To be noted: CHO BLA complementation NOD2-RIPK2, CCF4 ratio; at 4.98 µM; active compounds read high.
Turning to `CP(=O)(Nc1ccccn1)Oc1ccc(Cl)cc1` (centres undefined), the inhibition is inactive: -8.72%. In the case of `CCOP(C)(=S)SCC(=O)NC(C)C(=O)O` (centres undefined), the inhibition was inactive: 4.16%. On to `O=[N+]([O-])c1cc([N+](=O)[O-])c(O)c([N+](=O)[O-])c1.c1ccc(Oc2ccncc2)cc1`, for which the inhibition was inactive: -11.6%. As for `CCOC(=O)c1ccc(NP(C)(=O)Oc2ccc(OC)cc2)cc1` (centres undefined), the figure is inactive: -1.53%. The same measure for `Cc1cc(C)cc(OP(C)(=O)Nc2ccc(SC(F)(F)F)cc2)c1` (centres undefined): inactive: 1.27%; for `CP(=O)(NC(=O)Nc1ccccc1)Oc1ccccc1` (centres undefined): inactive: -5.88%; for `CCc1ccc(OP(C)(=O)N2CCN(c3ccc([N+](=O)[O-])cc3)CC2)cc1` (centres undefined): inactive: 15.5%. As for `CP(=O)(Oc1ccccc1)OC(c1ccccc1)C(F)(F)F` (centres undefined), the figure is inactive: -11.8%.

For the compound `CP(=O)(Nc1ccc(SC(F)(F)F)cc1)Oc1ccc(Cl)cc1` (centres undefined), the inhibition is inactive: 10.5%.

As to `Cc1ccc(Nc2c([N+](=O)[O-])cc([N+](=O)[O-])cc2[N+](=O)[O-])cc1`, the inhibition was inactive: -0.02%. As for `Cc1cccc(C)c1OP(C)(=O)Nc1ccc(SC(F)(F)F)cc1` (centres undefined), the figure is inactive: -6.55%.

Regarding `COc1ccccc1OP(C)(=O)Nc1ccccc1` (centres undefined), the inhibition is inactive: -14.7%.

In the case of `CP(=O)(Nc1ccccc1Br)Oc1ccccc1` (centres undefined), the inhibition was inactive: 5.37%. As for `CP(=S)(Nn1cnnc1)Oc1ccccc1` (centres undefined), the inhibition was inactive: 2.29%. The same measure for `COc1ccc(OP(C)(=O)Nc2cccc(F)c2)cc1` (centres undefined): inactive: -0.31%; for `COc1ccccc1OP(C)(=O)Nc1cc(Cl)ccc1C` (centres undefined): inactive: -5.41%; for `Cc1cc(C)cc(OP(C)(N)=O)c1` (centres undefined): inactive: 0.38%.

As to `CCOC(=O)c1ccc(NP(C)(=O)Oc2ccccc2)cc1` (centres undefined), the inhibition was inactive: -14.5%.

For `Cc1ccc(NP(C)(=O)Oc2ccccc2)c(C)c1` (centres undefined), the inhibition is inactive: -15%. As for `COc1ccccc1OP(C)(=O)Nc1ccc(C)cc1` (centres undefined), the figure is inactive: 2.86%.

Regarding `Cc1cccc(C)c1OP(C)(N)=O` (centres undefined), the inhibition is inactive: 6.66%.

For the compound `CC(C)(C)c1ccc(OP(C)(=O)Nc2ccc(SC(F)(F)F)cc2)cc1` (centres undefined), the inhibition was inactive: -5.82%. In the case of `O=[N+]([O-])c1ccc2c(c1)C=Nc1ccccc1O2`, the inhibition was inactive: -2.55%. As to `O=[N+]([O-])c1cc([N+](=O)[O-])c(Nc2cccnc2)c([N+](=O)[O-])c1`, the inhibition is inactive: 3.13%. The same measure for `COc1ccccc1-c1ccccn1.O=[N+]([O-])c1cc([N+](=O)[O-])c(O)c([N+](=O)[O-])c1`: inactive: 3.32%; for `CCN(CC)CCCOC(=O)C(O)(c1ccccc1)c1ccccc1`: inactive: -0.9%; for `Cc1cc(C)cc(OP(C)(=O)Nc2ccccn2)c1` (centres undefined): inactive: -4.41%. The same measure for `CP(=O)(Nc1cccc(Br)c1)Oc1ccccc1` (centres undefined): inactive: -10.6%.

For `Cc1ccc(C)c(NP(C)(=O)Oc2ccccc2)c1` (centres undefined), the inhibition is inactive: -6.3%.

Consider `Cc1cc(C)cc(OP(C)(=O)Nc2ccc(C)cc2C)c1` (centres undefined), for which the inhibition was inactive: -1.63%. Turning to `CCOC(=O)c1ccc(NP(C)(=O)Oc2cc(C)cc(C)c2)cc1` (centres undefined), the inhibition was inactive: -4.05%.

Consider `COc1ccccc1OP(C)(=O)Nc1cccc(Br)c1` (centres undefined), for which the inhibition is inactive: 0.47%. Turning to `CC1=NCCc2c1[nH]c1ccccc21.O=[N+]([O-])c1cc([N+](=O)[O-])c(O)c([N+](=O)[O-])c1`, the inhibition is inactive: -1.12%. The same measure for `O=C(O)c1cccc(Nc2c([N+](=O)[O-])cc([N+](=O)[O-])cc2[N+](=O)[O-])c1`: inactive: -4.64%; for `CCCOc1ccc(NP(C)(=O)Oc2ccc(Cl)cc2)cc1` (centres undefined): inactive: 3.03%; for `CP(=O)(Nc1ccc(SC(F)(F)F)cc1)Oc1ccccc1` (centres undefined): inactive: -0.85%. The same measure for `COc1ccc(-c2ccccn2)cc1.O=[N+]([O-])c1cc([N+](=O)[O-])c(O)c([N+](=O)[O-])c1`: inactive: -14.1%.

In the case of `CN1CCCCC1COC(=O)C1(O)c2ccccc2CCc2ccccc21` (centres undefined), the inhibition was inactive: -4.79%. The same measure for `COc1ccccc1OP(C)(=O)Nc1c(C)cccc1C` (centres undefined): inactive: 10.7%. Turning to `CCOC(=O)C(CC)C1=NC(C)(C)Cc2ccccc21.O=[N+]([O-])c1cc([N+](=O)[O-])c(O)c([N+](=O)[O-])c1` (centres undefined), the inhibition is inactive: 5.79%. On to `CC1=C2N=C(C=C3N=C(C(C)=C4[N-][C@@](C)([C@@H]5N=C1[C@](C)(CCC(=O)NC[C@@H](C)OP(=O)([O-])O[C@H]1[C@@H](O)[C@@H](n6cnc7cc(C)c(C)cc76)O[C@@H]1CO)[C@H]5CC(N)=O)[C@@](C)(CC(N)=O)[C@@H]4CCC(N)=O)[C@@](C)(CC(N)=O)[C@@H]3CCC(N)=O)C(C)(C)[C@@H]2CCC(N)=O.[C-]#N.[Co+3]`, for which the inhibition was inactive: -0.5%. Regarding `O=[N+]([O-])c1cc([N+](=O)[O-])c(Nc2nnnn2CCO)c([N+](=O)[O-])c1`, the inhibition was inactive: -14%. The same measure for `Cc1nc2ccc3ccccc3c2s1.O=[N+]([O-])c1cc([N+](=O)[O-])c(O)c([N+](=O)[O-])c1`: inactive: -1.37%. As to `O=[N+]([O-])c1cc([N+](=O)[O-])c(-c2cnn(-c3ccccc3)c2)c([N+](=O)[O-])c1`, the inhibition is inactive: -3.61%. The same measure for `CN(Cc1cccnc1)C(=O)COc1ccc(Cl)c(Cl)c1.O=[N+]([O-])c1cc([N+](=O)[O-])c(O)c([N+](=O)[O-])c1`: inactive: -16%; for `O=[N+]([O-])c1cc([N+](=O)[O-])c(-n2nnc3ccccc32)c([N+](=O)[O-])c1`: inactive: 1.3%; for `O=[N+]([O-])c1cc([N+](=O)[O-])c(C(F)(F)F)c([N+](=O)[O-])c1O`: inactive: -23.8%. The same measure for `Cc1ccccc1NP(C)(=O)Nc1ccccc1C`: inactive: -2.96%. Take `CP(=O)(Nc1ccc2c(c1)OCCO2)Oc1ccccc1` (centres undefined): the inhibition was inactive: -10.6%.
